# Reference: article PMC7099768, “A positron emission tomography imaging study to confirm target engagement in the lungs of patients with idiopathic pulmonary fibrosis following a single dose of a novel inhaled αvβ6 integrin inhibitor” (Respiratory Research, 2020)
# Legend:
# [1] = test system: activation of TGFβ; conditions: mouse, in vivo; cited from earlier work
smiles,measurement,setting,value
"Cc1cc(C)n(-c2cccc([C@H](CC(=O)O)CN3CC[C@@H](CCc4ccc5c(n4)NCCC5)C3)c2)n1 [GSK3008348, (S)-3-(3-(3,5-Dimethyl-1 H-pyrazol-1-yl)phenyl)-4-((R)-3-(2-(5,6,7,8-tetrahydro-1,8-naphthyridin-2-yl)ethyl)pyrrolidin-1-yl) butanoic acid]","Contact dermatitis, n (%)","1000 mcg nebulised, N=5",1 (20) n (%)
same,"Tooth extraction, n (%)","1000 mcg nebulised, N=5",1 (20) n (%)
same,Serious adverse events,single nebulised 1000 mcg doses in two periods,no SAEs reported
same,Tolerability,"single nebulised 1000 mcg doses, participants with IPF",well tolerated
same,Effect on activation of TGFβ,[1],inhibited the activation of TGFβ
